This is a selection; strong and weak results do not stand in their true shares. Activity calls are given as the source filed them.

The chains behind the UniProt entries cited, without tags or fusion partners.
UniProt P09923, whole entry: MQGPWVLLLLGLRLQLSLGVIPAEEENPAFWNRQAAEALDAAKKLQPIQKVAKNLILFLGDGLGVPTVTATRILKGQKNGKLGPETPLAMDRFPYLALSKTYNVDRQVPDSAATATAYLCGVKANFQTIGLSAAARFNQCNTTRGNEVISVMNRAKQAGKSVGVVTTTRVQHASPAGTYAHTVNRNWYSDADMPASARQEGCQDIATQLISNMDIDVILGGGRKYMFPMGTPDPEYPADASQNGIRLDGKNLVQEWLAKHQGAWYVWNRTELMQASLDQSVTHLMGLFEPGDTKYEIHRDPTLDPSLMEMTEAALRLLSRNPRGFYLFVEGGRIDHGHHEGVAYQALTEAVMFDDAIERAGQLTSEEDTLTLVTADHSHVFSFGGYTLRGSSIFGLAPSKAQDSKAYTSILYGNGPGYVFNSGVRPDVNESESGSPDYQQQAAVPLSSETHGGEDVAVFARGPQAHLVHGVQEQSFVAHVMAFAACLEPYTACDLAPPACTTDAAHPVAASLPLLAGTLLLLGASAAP

This assay deals with Intestinal-type alkaline phosphatase (Homo sapiens) (UniProt P09923). Briefly: enzymatic activation of intestinal alkaline phosphatase – biochemical, luminescence, uHTS, primary screen (AID 2524). Conditions: purified human IAP, CDP-Star luminescence, 30 min; at 10 µM; hits give high values; 1 = vehicle-only enzyme, 0 = enzyme-free background.
Turning to `CC(C)(C)OC(=O)N1CCC(N(C(=O)c2ccccc2)c2ccc(Cl)cc2)CC1`, the activation factor is inactive: 0.886.

As to `N#Cc1ccc(C(=O)NCC2(N3CCCCC3)CCCCC2)cc1`, the activation factor was inactive: 1.02. Then `c1ccc(CN2CCC(Nc3ccccc3)CC2)cc1`, with inactive: 1.01; and `CCCN1CCC(Nc2cc(OC)cc(OC)c2)CC1`, with inactive: 1.24. Next, `CN(C)C1(CNC(=O)c2cccc(C#N)c2)CCCCC1`: inactive: 1.01. Then `O=C(NCC1(N2CCOCC2)CCCCC1)c1cc(Br)ccc1Cl`, with inactive: 0.961; and `COc1cc(C(=O)NCC2(N3CCOCC3)CCCCC2)cc(OC)c1C`, with inactive: 1.05; and `COc1ccc(C(=O)NCC2(N3CCOCC3)CCCCC2)cc1OC`, with inactive: 0.938. In the case of `N/C(=N\O)c1c(N)no[n+]1[O-]`, the activation factor was inactive: 0.949. Next, `CCOC(=O)N1CCC(Nc2ccc(C)cc2)CC1`: inactive: 1.14; `O=C(OC1CN2CCC1CC2)C1c2ccccc2C=Cc2ccccc21` (stereo not given): inactive: 0.925. In the case of `CCc1cc(C(=O)NCC2(N3CCCCC3)CCCCC2)sc1C`, the activation factor was inactive: 0.891. Then `CCOc1ncccc1C(=O)NCC1(N2CCOCC2)CCCCC1`, with inactive: 0.84. Then `CN1CCC(Nc2ccc(F)c(Cl)c2)CC1`, with inactive: 1.19; and `CCCOc1ccc(C(=O)NCC2(N(C)C)CCCCC2)cc1`, with inactive: 0.862; and `CC(C)(C)OC(=O)N1CCC(Nc2ccccc2)CC1`, with inactive: 1.07. For `O=C(O)C1(Nc2ccccc2)CCN(Cc2ccccc2)CC1`, the activation factor is inactive: 1.14. Then `CCC(CO)(C(=O)OC1CN2CCC1CC2)c1ccccc1` (stereo not given), with inactive: 1.04; and `COc1cc(OC)cc(C(=O)NCC2(N3CCOCC3)CCCCC2)c1`, with inactive: 1.09; and `COc1cccc(C(=O)N(c2cc(C)cc(C)c2)C2CCN(C(=O)OC(C)(C)C)CC2)c1`, with inactive: 1.2. As for `CCCOc1ccc(C)cc1CN(CCCl)CCCl`, the activation factor is inactive: 1.06.

`CN1CCC(Nc2ccc(Cl)cc2)CC1`: the activation factor was inactive: 1.06. Then `COc1cc(OC)cc(C(=O)NCC2(N3CCCCC3)CCCCC2)c1`, with inactive: 1.1; and `Cc1ccc(C(=O)NCC2(N3CCCCC3)CCCCC2)o1`, with inactive: 0.974.

On to `Fc1ccccc1NC1CCN(Cc2ccccc2)CC1`, for which the activation factor was inactive: 1.24. Next, `CCN1CCC(Nc2cccc(F)c2)CC1`: inactive: 1.03; `O=C(NCC1(N2CCCCC2)CCCCC1)c1ccco1`: inactive: 0.864; `CN(C)c1ccc(C(=O)NCC2(N3CCCCC3)CCCCC2)cc1`: inactive: 1.2. Then `CCOc1ccc(C)cc1CN(CCCl)CCCl`, with inactive: 1.18; and `O=C(NCC1(N2CCCCC2)CCCCC1)c1ccc(F)cc1`, with inactive: 1.02.

For the origin of these results see PubChem BioAssay AID2524 (Sanford-Burnham Center for Chemical Genomics, 2010).
